Tests used:
CYP1A2 = target: T1, CYP1A2 (Rattus norvegicus, UniProt P04799); assay: In vitro cocktail CYP450 activity assay in rat liver microsomes, CYP1A2 (phenacetin probe); conditions: read-out: IC50 CYP1A2; single components; RLM 0.2 mg/mL, 15 min, triplicate, mean ± SD
T1 sequence (P04799 1-513): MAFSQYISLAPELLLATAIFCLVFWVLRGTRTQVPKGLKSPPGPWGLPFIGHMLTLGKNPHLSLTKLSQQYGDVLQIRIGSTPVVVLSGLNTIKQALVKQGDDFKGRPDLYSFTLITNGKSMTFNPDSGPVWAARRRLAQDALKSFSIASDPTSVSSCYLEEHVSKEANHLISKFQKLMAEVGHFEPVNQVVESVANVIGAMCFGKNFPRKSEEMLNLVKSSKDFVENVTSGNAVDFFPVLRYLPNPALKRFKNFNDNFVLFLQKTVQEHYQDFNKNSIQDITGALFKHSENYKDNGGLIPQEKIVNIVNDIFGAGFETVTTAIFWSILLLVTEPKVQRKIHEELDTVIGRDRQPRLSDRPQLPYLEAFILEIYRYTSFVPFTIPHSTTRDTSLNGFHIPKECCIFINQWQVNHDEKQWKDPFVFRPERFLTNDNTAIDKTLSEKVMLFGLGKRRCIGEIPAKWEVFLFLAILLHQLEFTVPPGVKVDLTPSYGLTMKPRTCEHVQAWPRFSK

The chains behind the UniProt entries cited, without tags or fusion partners. Where a name states a change or a piece, a line headed by the entry shows the natural chain unless it says otherwise.
UniProt P05182: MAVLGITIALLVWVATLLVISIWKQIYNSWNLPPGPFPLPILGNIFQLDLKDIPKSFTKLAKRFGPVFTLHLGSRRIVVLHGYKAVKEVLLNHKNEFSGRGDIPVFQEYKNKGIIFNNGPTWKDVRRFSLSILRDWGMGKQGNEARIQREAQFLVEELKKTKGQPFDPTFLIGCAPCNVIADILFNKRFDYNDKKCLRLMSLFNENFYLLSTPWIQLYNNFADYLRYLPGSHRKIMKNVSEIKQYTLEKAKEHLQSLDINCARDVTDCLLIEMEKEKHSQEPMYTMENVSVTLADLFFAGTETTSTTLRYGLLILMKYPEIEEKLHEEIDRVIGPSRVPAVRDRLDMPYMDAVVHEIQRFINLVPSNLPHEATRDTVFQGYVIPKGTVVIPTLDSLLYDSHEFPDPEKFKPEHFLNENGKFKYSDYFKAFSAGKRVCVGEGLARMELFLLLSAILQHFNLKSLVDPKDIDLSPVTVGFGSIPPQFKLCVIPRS

CYP2E1 = CYP2E1 (Rattus norvegicus, UniProt P05182)

| IC50 CYP2E1 (CYP2E1; microsomes) | Substance | IC50 (CYP1A2) | IC50 (CYP2E1; read-out: IC50 CYP2E1, single components, RLM 0.2 mg/mL, 15 min, triplicate, mean ± SD) |
| --- | --- | --- | --- |
| – | kaempferol-3-O-rutinoside [A11] | 53.2 ± 6.12 µM | 5.45 ± 1.37 µM |
| 16.12 ± 2.59 µg/mL | notoginseng total saponins [NGTS] | – | – |
